Patent US8017630B2 (priority 2004, dated 2011)

By UniProt entry, the sequences of proteins in these tests, tags left out. Where a name states a change or a piece, a line headed by the entry shows the natural chain unless it says otherwise.
UniProt P35372, whole entry, looked up: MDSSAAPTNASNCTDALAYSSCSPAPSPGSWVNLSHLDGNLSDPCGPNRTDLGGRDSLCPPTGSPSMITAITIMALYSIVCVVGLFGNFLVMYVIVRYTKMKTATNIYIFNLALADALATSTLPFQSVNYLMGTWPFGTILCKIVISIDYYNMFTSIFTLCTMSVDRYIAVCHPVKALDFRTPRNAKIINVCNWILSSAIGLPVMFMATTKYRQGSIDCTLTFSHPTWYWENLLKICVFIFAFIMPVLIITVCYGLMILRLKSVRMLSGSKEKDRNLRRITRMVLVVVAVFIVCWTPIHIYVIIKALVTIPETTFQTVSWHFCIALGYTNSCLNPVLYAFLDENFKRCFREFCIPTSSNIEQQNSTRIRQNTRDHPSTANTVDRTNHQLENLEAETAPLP
UniProt P41146: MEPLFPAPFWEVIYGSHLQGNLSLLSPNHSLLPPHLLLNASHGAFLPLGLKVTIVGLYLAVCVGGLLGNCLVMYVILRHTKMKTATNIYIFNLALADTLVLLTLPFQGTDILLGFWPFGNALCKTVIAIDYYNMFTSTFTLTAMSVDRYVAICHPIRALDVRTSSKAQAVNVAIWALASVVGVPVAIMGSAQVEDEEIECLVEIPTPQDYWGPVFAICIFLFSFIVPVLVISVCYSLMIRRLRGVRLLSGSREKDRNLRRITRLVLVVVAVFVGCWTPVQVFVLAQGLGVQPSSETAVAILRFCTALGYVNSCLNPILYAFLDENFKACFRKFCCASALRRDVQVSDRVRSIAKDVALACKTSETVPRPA

What was measured:
5HT uptake = assay: Serotonin reuptake in rat brain synaptosomes; format: biochemical; conditions: synaptosomes from medulla+pons of male rat brains
NA uptake = assay: Noradrenaline reuptake in rat brain synaptosomes; format: biochemical; conditions: synaptosomes from hypothalamus of male rat brains
human μ-opiate receptor = human μ-opiate receptor (Homo sapiens, UniProt P35372); assay: μ-opiate receptor binding assay with [3H]-naloxone; conditions: % inhibition of specific [3H]-naloxone binding at 1 μmol/l
ORL1 receptor = ORL1 receptor (Homo sapiens, UniProt P41146); assay: ORL1 receptor binding assay with 3H-nociceptin/orphanin FQ; conditions: % inhibition at c=1 μM; membranes from recombinant CHO-ORL1 cells
mice = assay: Tail flick test in mice (analgesia); conditions: 1 mg/kg intravenous; % of maximum possible antinociceptive effect

## CC(Cc1c[nH]c2ccccc12)NC(=O)C=C1CCC(c2ccccc2)(N(C)C)CC1 (stereo not drawn)
5HT uptake
  5HT uptake % (10): 92%
NA uptake
  NA uptake % (10): 101%

## CN(C)C1(c2ccccc2)CCC(CC(=O)NCCc2c[nH]c3ccccc23)CC1.Cl (stereo not drawn)
5HT uptake
  5HT uptake % (10): 85%
NA uptake
  NA uptake % (10): 78.5%

## CN(C)C1(c2ccccc2)CCC(CC(=O)NCCCCc2ccccc2)CC1.Cl (stereo not drawn)
5HT uptake
  5HT uptake % (10): 81%
NA uptake
  NA uptake % (10): 86%

## CN(C)C1(c2ccccc2)CCC(=CC(=O)NCCCc2c[nH]c3ccccc23)CC1.Cl (stereo not drawn)
5HT uptake
  5HT uptake % (10): 91%
NA uptake
  NA uptake % (10): 95%
Human μ-opiate receptor
  ORμNal % 1 μm: 98%
ORL1 receptor
  ORL1% 1 μM: 88%

## CC(Cc1c[nH]c2ccccc12)NC(=O)CC1CCC(c2ccccc2)(N(C)C)CC1.Cl (stereo not drawn)
5HT uptake
  5HT uptake % (10): 83%
NA uptake
  NA uptake % (10): 55%

## COC(=O)C(Cc1c[nH]c2ccccc12)NC(=O)C=C1CCC(c2ccccc2)(N(C)C)CC1.Cl (stereo not drawn)
mice
  TFMiv % [1 mg/kg]: 62%
Human μ-opiate receptor
  ORμNal % 1 μm: 100.5%
ORL1 receptor
  ORL1% 1 μM: 97.00%
